Laboratory results reported in US11739297B2, “Method of increasing tumor killing activity of macrophages or monocytes comprising chimeric antigen receptor” (Carisma Therapeutics Inc., priority 2020, dated 2023).
“Also recorded” adds a separate entry of the source.

Experiments:
[1] = test system: HER2+ breast cancer cells (CRL2351); experiment: Cytokine secretion of interferon treated HER2 CAR macrophages in co-culture (MSD); type: cell-based, human; conditions: 150 nM CAR mRNA, E:T 3:1, 48 hours co-culture
Method: To evaluate whether interferon treatment of macrophages improved other anti-tumor functions, the cytokine secretion of interferon treated or untreated mRNA transfected HER2 CAR macrophages after co-culture with HER2+ breast cancer cells was evaluated. Human macrophages were electroporated with 150 nM HER2 CAR mRNA comprising m6AGCap1 and PsU modifications. HER2+ breast cancer cells (CRL2351) were co-cultured with CAR macrophages after the macrophages were transfected with the CAR mRNA at an Effector (CAR macrophage) to Target (cancer cell) ratio of 3:1. Supernatant was collected 48 hours after the cancer cells and macrophages were co-cultured and cytokine levels were measured using a Meso Scale Discovery (MSD) instrument.

human macrophages = experiment: Viability, CAR expression and M1/M2 markers of HER2 CAR mRNA electroporated macrophages cultured with cytokines; type: cell-based
Method: (§1) Human macrophages were electroporated with HER2 CAR mRNA comprising m6AGCap1 and PsU modifications. Cells were cultured with cytokines that induce an M1 phenotype such as IFN-alpha, IFN-beta, IFN-gamma, IFN-gamma plus lipopolysaccharide (LPS), TNF-alpha, IL-6 or a STING ligand (STING-L) for up to 48 hours and then cytokines were washed off and fresh media was added. CAR expression and M1 marker expression were measured on days 2 and 7 after transfection. Fluorescent labeled HER2+ breast cancer cells (CRL2351) were co-cultured with HER2 CAR macrophages two days after the macrophages were transfected. Cancer cell growth was monitored via its fluorescence on an Incucyte® live imaging microscope every four hours. The Effector (CAR macrophage) to Target (cancer cell) ratio was 5:1.
(§2) Five different mRNA modifications were also tested to determine if interferon treatment differentially affected macrophages transfected with mRNA comprising different modifications. Human macrophages were electroporated with HER2 CAR mRNA comprising different mRNA modifications. CAR expression and M1 markers were detected by Flow Cytometry (Attune) on day four after electroporation. Day 4 CAR macrophage cells were then co-cultured with a Nuc-Light labeled, HER2+ breast cancer cell line (CRL2351) at an Effector (CAR macrophage) to Target (cancer cell) ratio of 5:1. Cancer cell growth was monitored via its fluorescence on an Incucyte® live imaging microscope every four hours.
To further evaluate the impact of IFN-β on CAR persistence, human macrophages electroporated with m6AGCap1/PsU mRNA encoding a HER2 CAR were evaluated on day 2 and day 7.
In order to validate the effect of IFN-β treatment on improved CAR expression, and to optimize the IFN-β concentration, macrophages transfected with M6AGCap1/PsU modified mRNA were treated with 0, 3, 10, 30, or 100 ng/mL IFN-β for 4 hours and the viability, CAR percentage, and CAR MFI were evaluated on day 4 and day 7 post electroporation.
Given that macrophage phenotype is considered plastic, and immunosuppressive cytokines such as IL-10 are known to induce an M2 phenotype, the impact of IL-10 treatment on IFN-β treated or untreated HER2 CAR mRNA transfected macrophages was evaluated.
Additional studies were performed to determine if treatment with interferons could further improve CAR mRNA persistence in macrophages and if CAR macrophage functionality could be extended. Human macrophages were electroporated with 300 nM CAR mRNA comprising m6AGCap1 and PsU modifications. Cells were cultured with 20 ng/mL IFNs for 24 hours and then the cells were washed to remove cytokines. CAR expression was detected by Flow Cytometry (Attune) on day 2 after transfection. Cells were then co-cultured with a Nuc-Light labeled, HER2+ breast cancer cell line (CRL2351) at the Effector to Target ratio of 3:1. Cancer cell growth was monitored via its fluorescence on an Incucyte® live imaging microscope. CAR expression and M1 markers in macrophages were detected by Flow Cytometry (Attune) on day 7 after transfection.

[2] = test system: HER2+ breast cancer cells (CRL2351); experiment: Cancer cell killing by cytokine treated HER2 CAR macrophages (Incucyte); type: cell-based, human
Method: as §1, §2
To evaluate the anti-tumor function of macrophages transfected with mRNA encoding a HER2 CAR with or without priming with IFN-β, untransduced (UTD) or CAR macrophages were primed with 0, 3, 10, 30, or 100 ng/mL IFN-β for 4 hours or 20 hours. These effector cells were then co-cultured with the HER2+ breast cancer cell line CRL2351-GFP at an effector to target ratio of 3:1 or 1.5:1 and anti-tumor activity was measured based on GFP expression using an Incucyte® live imaging microscope. […] To evaluate whether the improved mRNA-transfected CAR macrophage anti-tumor effect was universal to all interferons or only interferon beta, macrophages electroporated with M6AGCap1/PsU mRNA were treated with IFN-alpha, beta, or gamma and evaluated for their cancer cell killing ability.
Additional studies were performed to determine if treatment with interferons could further improve CAR mRNA persistence in macrophages and if CAR macrophage functionality could be extended. […] CAR expression was detected by Flow Cytometry (Attune) on day 2 after transfection. […] Cancer cell growth was monitored via its fluorescence on an Incucyte® live imaging microscope. CAR expression and M1 markers in macrophages were detected by Flow Cytometry (Attune) on day 7 after transfection.

[3] = 48 hours and 7 days post-treatment with IL-10
[4] = mRNA transfected CAR macrophages

B1: IFN-β: interferon cytokine that induces an M1 phenotype (protein, UniProt P01574 22-187, looked up)
Interferon beta: MSYNLLGFLQRSSNFQCQKLLWQLNGRLEYCLKDRMNFDIPEEIKQLQQFQKEDAALTIYEMLQNIFAIFRQDSSSTGWNETIVENLLANVYHQINHLKTVLEEKLEKEDFTRGKLMSSLHLKRYYGRILHYLKAKEYSHCAWTIVRVEILRNFYFINRLTGYLRN
Question: How did the “secretion of the cytokines IL-6, IL-8 and TNFα” value [1] turn out when B1 was run?
Answer: The value was “increased secretion”.

Question: What about the “persistence of M1 phenotype post treatment” value (human macrophages) of the same molecule?
Answer: Its value is “at least 7 days”.

Question: And the “CAR expression (CAR percentage, CAR MFI)” value (human macrophages; 0, 3, 10, 30, or 100 ng/mL for 4 hours, day 4 and day 7)?
Answer: Its value is “dose-dependent effect”.

Question: What about the “induction of M1 markers CD80, CD86, and HLA-DR” value (human macrophages; 0-100 ng/mL) of the same molecule?
Answer: Its value is “dose-dependent”.

Question: What about the “M1 marker CD86 after IL-10” value (human macrophages; [3]) of the same molecule?
Answer: Its value is “retaining expression of the M1 marker CD86”.

Question: And the “resistance to IL-10 / M2 inducing factors (M2 marker CD163)” value (human macrophages; [3])?
Answer: The value was “did not express the M2 marker CD163; also recorded: resisted other M2 inducing factors as well”.

Question: And the CAR expression (human macrophages; Day 7)?
Answer: The CAR expression was “higher CAR expression than macrophages treated with control media, IFN-α, or IFN-γ”.

Question: And the CAR expression (human macrophages; day 2)?
Answer: Its CAR expression is “higher CAR expression than macrophages treated with control media, IFN-α or IFN-γ”.

Question: What about the “HER2 CAR expression” value (human macrophages; day 7, 20 ng/mL IFNs for 24 hours) of the same molecule?
Answer: The value was “expressed the highest level of CAR by a significant margin”.

Question: What about the CAR expression rate (human macrophages; day 7, m6AGCap1/PsU mRNA, vs not treated) of the same molecule?
Answer: The CAR expression rate was “significantly improved CAR expression rate on day 7”.

Question: And the “expression of M1 markers CD80, CD86 and HLA-DR” value (human macrophages; day 7, vs no interferon)?
Answer: The value was “increased”.

Question: And the “M1 phenotype (based on CD86 expression)” value (human macrophages; [4])?
Answer: Its value is “induction of an M1 phenotype; also recorded: strongest M1 phenotype of the interferons evaluated”.

Question: What about the “M2 markers (based on CD163 expression)” value (human macrophages; [4]) of the same molecule?
Answer: The value was “reduction of M2 markers”.

Question: And the “cancer cell killing by primed CAR macrophages” value ([2]; 0-100 ng/mL for 4 or 20 hours, E:T 3:1 or 1.5:1)?
Answer: The value was “improved ability for CAR macrophages to kill cancer cells”.

Question: What about the “cancer cell killing, comparison of interferons” value ([2]; M6AGCap1/PsU mRNA) of the same molecule?
Answer: Its value is “best cancer cell killing, with a greater effect than IFN-α or IFN-γ”.

Question: What about the cancer cell killing ([2]; assay 7 days post-electroporation, 72 hours co-culture) of the same molecule?
Answer: Its cancer cell killing is “highest level of cancer killing”.

Question: And the “anti-tumor activity of CAR macrophages electroporated with modified mRNAs” value ([2]; with or without treatment)?
Answer: Its value is “improved anti-tumor activity for all CAR macrophages except those transfected with 5moU mRNA”.
